By UniProt entry, the sequences of proteins in these tests, tags left out.
UniProt P21728, whole entry: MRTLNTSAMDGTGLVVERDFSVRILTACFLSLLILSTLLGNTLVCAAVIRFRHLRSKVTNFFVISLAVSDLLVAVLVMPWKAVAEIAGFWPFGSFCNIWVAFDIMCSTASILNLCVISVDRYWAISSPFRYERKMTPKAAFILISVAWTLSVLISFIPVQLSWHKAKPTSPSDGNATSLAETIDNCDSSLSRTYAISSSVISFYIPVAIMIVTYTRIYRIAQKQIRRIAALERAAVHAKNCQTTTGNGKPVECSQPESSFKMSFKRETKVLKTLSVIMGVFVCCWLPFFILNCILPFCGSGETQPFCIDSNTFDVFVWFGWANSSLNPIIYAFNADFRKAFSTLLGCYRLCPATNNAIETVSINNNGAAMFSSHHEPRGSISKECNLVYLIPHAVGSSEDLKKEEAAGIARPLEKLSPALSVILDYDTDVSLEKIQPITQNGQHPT

In ChEMBL document CHEMBL1129489 (J Med Chem, 1996):

Key:
[1] = biological target: T1, D(1A) dopamine receptor (Homo sapiens, UniProt P21728); conditions: COS-7
[2] = biological target: T1, D(1A) dopamine receptor; experiment: Equilibrium dissociation constant against recombinant Dopamine receptor D1A expressed in COS7 cells; assay type: cell-based, COS-7

SMILES: CNC[C@H](O)c1ccc(O)c(O)c1 [EPINEPHRINE]
- Log 1/Kd [1]: -4.74
- Kd [2]: 55 µM

SMILES: NCCc1c[nH]c2ccc(O)cc12 [SEROTONIN]
- Log 1/Kd [1]: -3.99
- Kd [2]: 9.69 µM
